Measured values as given in US20240261417A1, “SOS1 DEGRADING AGENT AND PREPARATION METHOD THEREFOR AND APPLICATION THEREOF” (SHANGHAI LEADINGTAC PHARMACEUTICAL CO. LTD., priority 2021, published 2024).

How the values were obtained:
Type in all cases: cell-based
Details in all cases: 24 h
SOS1 protein [1] = molecular target: T1, SOS1 protein (Homo sapiens, UniProt Q07889); experiment: SOS1 degradation assay (Western blot), A-427 cells; set-up: host or cells: A-427 (human cancer cell lines)
T1 sequence (Q07889 1-1333): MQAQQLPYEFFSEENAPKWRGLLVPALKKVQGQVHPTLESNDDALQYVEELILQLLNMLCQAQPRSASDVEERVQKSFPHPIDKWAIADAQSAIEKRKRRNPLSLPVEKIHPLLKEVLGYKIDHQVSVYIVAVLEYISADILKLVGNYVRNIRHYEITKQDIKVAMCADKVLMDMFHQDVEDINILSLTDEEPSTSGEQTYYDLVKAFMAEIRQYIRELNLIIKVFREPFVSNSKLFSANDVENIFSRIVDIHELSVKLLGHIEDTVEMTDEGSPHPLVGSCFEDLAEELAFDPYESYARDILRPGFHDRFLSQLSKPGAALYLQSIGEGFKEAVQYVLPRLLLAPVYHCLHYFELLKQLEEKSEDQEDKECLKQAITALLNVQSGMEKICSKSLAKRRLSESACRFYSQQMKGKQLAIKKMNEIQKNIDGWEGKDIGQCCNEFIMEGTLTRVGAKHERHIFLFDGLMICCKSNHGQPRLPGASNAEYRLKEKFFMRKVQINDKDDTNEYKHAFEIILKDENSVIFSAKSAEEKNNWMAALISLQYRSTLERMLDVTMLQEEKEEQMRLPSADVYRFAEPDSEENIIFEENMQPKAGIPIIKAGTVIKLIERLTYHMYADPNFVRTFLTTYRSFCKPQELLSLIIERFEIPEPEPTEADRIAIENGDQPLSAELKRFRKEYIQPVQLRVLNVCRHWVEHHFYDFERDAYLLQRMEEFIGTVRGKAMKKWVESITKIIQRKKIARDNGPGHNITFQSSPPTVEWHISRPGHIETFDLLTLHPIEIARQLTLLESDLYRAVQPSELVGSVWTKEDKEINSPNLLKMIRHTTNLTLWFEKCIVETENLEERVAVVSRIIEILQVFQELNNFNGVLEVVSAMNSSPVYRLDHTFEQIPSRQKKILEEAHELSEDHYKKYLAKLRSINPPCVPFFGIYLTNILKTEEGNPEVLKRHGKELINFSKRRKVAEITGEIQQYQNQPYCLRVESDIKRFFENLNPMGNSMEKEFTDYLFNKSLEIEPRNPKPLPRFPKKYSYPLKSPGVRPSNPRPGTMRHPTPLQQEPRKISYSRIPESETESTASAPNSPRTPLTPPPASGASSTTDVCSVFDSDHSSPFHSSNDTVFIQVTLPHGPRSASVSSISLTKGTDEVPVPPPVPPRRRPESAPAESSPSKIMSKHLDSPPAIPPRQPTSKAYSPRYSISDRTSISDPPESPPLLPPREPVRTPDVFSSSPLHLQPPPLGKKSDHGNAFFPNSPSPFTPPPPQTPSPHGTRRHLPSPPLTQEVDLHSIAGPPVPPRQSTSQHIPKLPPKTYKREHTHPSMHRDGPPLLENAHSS
Experimental: (§1) The specific procedures were as follows:
(§2) 0.95 mL of cells were seeded into each well of a 24-well cell culture plate to achieve a cell density of 5×10^5 cells/well; the cell plate was incubated in an incubator at 37° C. with 5% CO2 overnight. Then 50 μL of the compound solution after dilution was added to each of the wells with the corresponding cells, so that the final concentration of the compound was in a range of 0.03-3000 nM. […] After dosing, the cell plate was incubated in an incubator at 37° C. with 5% CO2 for 24 h. […] After the plate was left to stand on ice for 30 min, the protein lysate in each well was transferred to a 1.5 mL centrifuge tube and centrifuged at 15000 g for 20 min at 4° C. The cell lysate supernatant after centrifugation was cryopreserved at −80° C. for testing and was used for determining the degradation level of the SOS1 protein by a WB method. The concentration of total protein in the cell lysate supernatant was determined using the BCA Protein Quantification Kit (Tiangen, PA115-02).
(§3) The concentration of total protein in the cell lysate was determined by BCA. […] Then the degradation rate was calculated by comparing the gray correction value with the gray correction value of the control group. […]

SOS1 protein [2] = molecular target: T1, SOS1 protein; experiment: SOS1 degradation assay (Western blot), DLD-1 cells; set-up: host or cells: DLD-1 (human cancer cell lines)
Experimental: as §1, §2, §3

SOS1 protein [3] = molecular target: T1, SOS1 protein; experiment: SOS1 degradation assay (Western blot), SW-620 cells; set-up: host or cells: SW-620 (human cancer cell lines)
Experimental: as §1, §2, §3

SOS1 protein [4] = molecular target: T1, SOS1 protein; experiment: SOS1 degradation assay (Western blot), NCI-H358 cells; set-up: The degradation of SOS1 by the compounds was investigated on KRAS G12C mutant human non-small cell lung cancer cells NCI-H358; host or cells: NCI-H358 (human cancer cell lines)
Experimental: as §1, §2, §3

DC50 (SOS1 protein [1]; read-out: A427 (G12D) DC50): < 50 nM
DC50 (SOS1 protein [2]; read-out: DLD-1 (G13D) DC50): 50 to 100 nM
DC50 (SOS1 protein [3]; read-out: SW620 (G12V) DC50): < 50 nM
DC50 (SOS1 protein [4]; read-out: NCI-H358 (G12C) DC50): < 50 nM
SMILES: COc1cc2nc(C)nc(N[C@H](C)c3cc(N)cc(C(F)(F)F)c3)c2cc1C1CCC(C(=O)N2CCN(CC3CCC4(CC3)CCN(C(=O)c3ccc(OC)c(N5CCC(=O)NC5=O)c3)CC4)CC2)CC1 (stereo partly drawn) [Example 20, 1-(5-(9-((4-((1R,4R)-4-(4-(((R)-1-(3-amino-5-(trifluoromethyl)phenyl)ethyl)amino)-7-methoxy-2-methylquinazolin-6-yl)cyclohexane-1-carbonyl)piperazin-1-yl)methyl)-3-azaspiro[5.5]undecane-3-carbonyl)-2-methoxyphenyl)dihydropyrimidine-2,4(1H,3H)-dione]
A427 (G12D) Dmax (SOS1 protein [1]): A (when 80≤Dmax (%)≤100, the level was A)
DLD-1 (G13D) Dmax (SOS1 protein [2]): A (when 80≤Dmax (%)≤100, the level was A)
SW620 (G12V) Dmax (SOS1 protein [3]): A (when 80≤Dmax (%)≤100, the level was A)
NCI-H358 (G12C) Dmax (SOS1 protein [4]): A (when 80≤Dmax (%)≤100, the level was A)
